From US9757455B2, “Oral therapeutic compound delivery system” (Johnson & Johnson Consumer Inc., priority 2005, dated 2017)

Experiment: Dissolution, USP dissolution apparatus 2, 900 mL 0.0033 N hydrochloric acid, 0 rpm, 37° C.
Format: physicochemical
Conditions: basic and amphoteric drugs in formulations according to the invention (Table 32), 300 sec

CN(C)CCc1c[nH]c2ccc(Cn3cncn3)cc12 [Rizatriptan benzoate]
% dissolved in 900 mL 0.0033 N HCl: 102%
